# Source: article PMC4222909 (PLoS ONE, 2014)
# How the values were obtained:
# [1] = target: T1, Zn(II)Har (heme associated regulator) (Porphyromonas gingivalis, UniProt B2RKX7, C97A); test: biochemical
# T1 construct: gene PGN_1503
# [2] = target: T2, Zn(II)Har (heme associated regulator) (Porphyromonas gingivalis, UniProt B2RKX7); test: biochemical
# T2 construct: gene PGN_1503
structure (smiles),measurement,setting,value
C=CC1=C(C)C2=Cc3c(C=C)c(C)c4[n]3[Fe]([Cl])[n]3c(c(C)c(CCC(=O)O)c3=CC3=NC(=C4)C(C)=C3CCC(=O)O)=CC1=N2 [hemin],Kd,[1],1000 ± 370 nM
same,Kd,[2],230 ± 120 nM
